Here are results for two compounds from patent US20050154230A1, “Urea derivatives” (Bayer HealthCare AG, priority 2001, published 2005).

By UniProt entry, the sequences of proteins in these tests, tags left out.
UniProt Q8NER1, whole entry: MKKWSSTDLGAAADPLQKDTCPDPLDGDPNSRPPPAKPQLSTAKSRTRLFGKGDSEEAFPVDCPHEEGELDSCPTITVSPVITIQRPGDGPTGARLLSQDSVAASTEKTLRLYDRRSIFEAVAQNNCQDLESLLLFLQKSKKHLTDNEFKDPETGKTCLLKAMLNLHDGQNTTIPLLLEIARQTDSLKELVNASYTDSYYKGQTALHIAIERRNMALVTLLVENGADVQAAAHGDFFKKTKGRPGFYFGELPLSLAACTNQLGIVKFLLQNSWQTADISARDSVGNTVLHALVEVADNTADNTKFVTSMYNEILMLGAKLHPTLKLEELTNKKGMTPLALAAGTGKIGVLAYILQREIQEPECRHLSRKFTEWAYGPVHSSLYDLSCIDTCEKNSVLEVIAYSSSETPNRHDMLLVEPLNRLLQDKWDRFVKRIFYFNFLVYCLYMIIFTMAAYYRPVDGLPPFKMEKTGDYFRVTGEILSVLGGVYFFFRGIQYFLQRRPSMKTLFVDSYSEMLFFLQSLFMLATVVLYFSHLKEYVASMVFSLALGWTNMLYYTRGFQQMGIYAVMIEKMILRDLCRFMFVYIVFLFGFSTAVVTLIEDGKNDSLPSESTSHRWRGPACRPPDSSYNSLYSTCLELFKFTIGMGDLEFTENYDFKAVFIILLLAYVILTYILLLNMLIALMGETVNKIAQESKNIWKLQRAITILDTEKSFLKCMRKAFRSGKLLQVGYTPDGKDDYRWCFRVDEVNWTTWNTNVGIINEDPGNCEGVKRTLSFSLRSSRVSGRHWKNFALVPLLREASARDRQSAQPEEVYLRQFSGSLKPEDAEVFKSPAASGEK

The assay concerns the target human VR1 (Homo sapiens, UniProt Q8NER1). Nature of the assay: Capsaicin-induced Ca2+ influx in the human VR1-transfected CHO cell line (Assay 1). Format: cell-based. To be noted: read-out: hVR1 class; human VR1-CHOluc9aeq cells, 10 nM capsaicin; compound purity about 40 to 90%.

On to `COc1cc(CNC(=O)Nc2ccc(C)c(Cl)c2)ccc1O`, for which the IC50 was less than 0.1 µM.
Under `CSc1cccc(NC(=O)NCc2ccc(Cl)c(Cl)c2)c1` stands 0.5 to 1 µM.
